## Ab-91 heavy chain CDR variants: yeast mating affinities

Target peptide (SARS-CoV-2 spike, HR2 region): PDVDLGDISGINAS

Parent: Ab-91, a human scFv built as VL, the linker GGGGSGGGGSGGGGS, VH. Only the CDRs of the heavy chain vary.
VL: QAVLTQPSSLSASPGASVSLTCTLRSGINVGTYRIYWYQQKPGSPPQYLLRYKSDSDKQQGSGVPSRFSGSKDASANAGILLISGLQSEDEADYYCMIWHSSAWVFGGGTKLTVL
VH: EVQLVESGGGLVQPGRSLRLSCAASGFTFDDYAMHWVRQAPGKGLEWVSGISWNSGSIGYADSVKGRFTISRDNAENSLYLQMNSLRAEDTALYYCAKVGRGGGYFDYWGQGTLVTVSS

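Variants in AAYL51 differ from the parent at up to three CDR positions; double and triple changes were sampled at random. Affinity was read by AlphaSeq, a pooled yeast mating assay with surface-displayed partners. After mating in shaken culture at 30 °C for 16 h, diploids were selected and their barcode pairs sequenced. Scores were corrected for input abundance and mapped to Kd with protein pairs of known affinity run in the same pool. Mating was done three times.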

Variants are written as CDR1, CDR2 and CDR3 of the heavy chain (limits as in the source). Parent: GFTFDDYAMH, GISWNSGSIGYADSVK, VGRGGGYFDY. The read-out is the apparent dissociation constant on a log10 scale (nM): the lower, the stronger. Averages over replicates are reported, and they cover detected replicates only. Where no diploid with the target was found in any replicate, the entry reads "nd": below detection, most likely a poor binder, though not proof of it. Empty control strains, which show no peptide, gave a signal in 21% of pairings with library AAYL51; the median was 4.54 and 95% of these signals were weaker than 3.26. No background was subtracted. Also given: how often the same scFv was detected with the empty control strains.

CDR-H1 | CDR-H2 | CDR-H3 | log10 Kd (nM), mean | replicates with signal | control signals
GFTDDDYAMH | GISANSGSIGYADSVK | VGRGGGYFDT | nd | 0 of 3 | 3 of 9
GFTFDDYAMN | GISWQSGSIGYATSVK | VGRGGGYFDY | nd | 0 of 3 | 2 of 9
GFTFCWYAMH | GISWNSGSWGYADSVK | VGRGGGYFDY | 4.23 | 2 of 3 | 1 of 9
GFTFDDYAMT | GISWNSGSIQYADSVK | VGRGGGYFRY | nd | 0 of 3 | 1 of 9
GFTFDDYAMH | GDSWHSGKIGYADSVK | VGRGGGYFDY | 4.98 | 2 of 3 | 3 of 9
GFTFDDYAMH | GISWNSPSIGYADSFK | VGRGGGYFWY | 4.03 | 1 of 3 | 0 of 9
GFTFDDYAMH | GISWNSGSIGYADSPK | VGRGGNYFDY | 3.23 | 1 of 3 | 2 of 9
GFTFDHYAMH | GISRNSGSIGYADSVK | VGRGIGYFDY | 4.56 | 2 of 3 | 0 of 9
PFKFDDYAMH | GISWNSGSIGYADSVK | VGRGGGYFYY | 5.47 | 1 of 3 | 5 of 9
GFTFDDYAMH | GISWNSPSISYADSVK | CGRGGGYFDY | 5.24 | 2 of 3 | 1 of 9
GFTFDDQAMH | GISWNSGSIGYADSVK | VGRGGLYFDY | nd | 0 of 3 | 0 of 9
GFTFDDYAMH | GISPNSGSIGYADSHK | VGRGGGYFDY | 0.95 | 3 of 3 | 6 of 9
IFTFDDYAMH | GISWNSGSIGDAFSVK | VGRGGGYFDY | 4.11 | 1 of 3 | 2 of 9
GFTTDFYAMH | GISWNSGSIGYADSVK | VGRGGGYFAY | 4.04 | 2 of 3 | 4 of 9
GFTFDDYAMH | GISDNSGHIGYAQSVK | VGRGGGYFDY | 3.11 | 3 of 3 | 4 of 9
GPTFDDYAMH | GISWNEGSIGYADSVK | VGRGGGYFVY | nd | 0 of 3 | 0 of 9
GFTFDDYAMH | GISWNSGSPGYADSVW | VGRTGGYFDY | nd | 0 of 3 | 1 of 9
GFTFDDYAWH | GISWNICSIGYADSVK | VGRGGGYFDY | nd | 0 of 3 | 3 of 9
GFTFDDYAMH | GISWNSGSIGYADSLK | VWRQGGYFDY | 5.72 | 3 of 3 | 4 of 9
GFTFMDYAMH | GISLNSGSIGYADSVK | VGRGGGYFDY | nd | 0 of 3 | 0 of 9
GFTFKDYAAH | GISWNSGSIGYADSVK | VGRGGGYFWY | 2.71 | 1 of 3 | 3 of 9
GFTMDDYAMH | GISWNSGSIGYNDSVK | VGRGGGYFEY | 4.92 | 3 of 3 | 4 of 9
GRTFDDYAPH | GISWNSGSIGYADSVK | VGRGTGYFDY | 4.55 | 1 of 3 | 3 of 9
GFTFDDYAMH | GISWNSGSIGYADSHK | VGCGWGYFDY | nd | 0 of 3 | 3 of 9
GFTFDDYAMH | GKSWNSTSIGYADSGK | VGRGGGYFDY | nd | 0 of 3 | 0 of 9
TFTFDDYAMH | GIWWNSGSIGYADSVK | VGRGGGYFVY | 4.80 | 2 of 3 | 5 of 9
GFTFDDYAKH | GISWHSGSIGYADSVK | VSRGGGYFDY | nd | 0 of 3 | 2 of 9
GQTDDDYAMH | GISWNSGSIGYADSVK | VGWGGGYFDY | nd | 0 of 3 | 1 of 9
GFWFDDYAMH | GISWNSGSIGYAESVK | VGRGGGYFSY | 1.17 | 3 of 3 | 2 of 9
GFYFDDYAMH | GISWNSGSIGYADSVK | VPRGGLYFDY | 4.87 | 1 of 3 | 1 of 9
GFTFDDYAMH | GIMWNSGHIGQADSVK | VGRGGGYFDY | nd | 0 of 3 | 3 of 9
GFMFDDYAMH | GISWNSHSIGYADSVK | VGRGGGYFDY | 3.05 | 3 of 3 | 2 of 9
VFTFDDYAMH | GIQWNSGSIGNADSVK | VGRGGGYFDY | 5.05 | 1 of 3 | 1 of 9
GWTFDKYAMH | GISWNSGSIGYADSVK | VGRGGGYVDY | nd | 0 of 3 | 0 of 9
GFTFDDYAMH | GISWNSFSIGYADSVK | VGRIGGYWDY | 2.40 | 1 of 3 | 0 of 9
GFTFDDYAMH | GISWNSGSEGYADDVK | VGRGGGYADY | 4.71 | 1 of 3 | 5 of 9
GFTFDDQAMH | GISWNSGSIGYADSVK | VGRSGPYFDY | nd | 0 of 3 | 1 of 9
CFTFFDYAMH | GISWNSGSIGWADSVK | VGRGGGYFDY | nd | 0 of 3 | 1 of 9
QFTGDDYAMH | GISWNSGSIGYADSVK | VGRGGGYFDS | 5.11 | 3 of 3 | 9 of 9
GFTLDDYAMH | GISWNSGSIGYADSFK | VGRGGGYFTY | nd | 0 of 3 | 2 of 9
GFTQDDYAMH | GINWNSLSIGYADSVK | VGRGGGYFDY | nd | 0 of 3 | 1 of 9
GFTFDDYAMH | GISWNSGSIGYADSVK | PGRGGGIFPY | 0.42 | 3 of 3 | 0 of 9
GFTFRDWAMH | GISWNSGSIGYADSVK | VGRGDGYFDY | 4.44 | 1 of 3 | 0 of 9
GFTFDDYAMF | GISWNSGSIGYADSVK | YCRGGGYFDY | nd | 0 of 3 | 0 of 9
GFTFDDYAMH | GISWNSDPIGYADSVK | VGRGYGYFDY | nd | 0 of 3 | 0 of 9
GFTFDDYAMH | GISWNSGSIGYADSVK | VGRGGGYCDR | 4.57 | 3 of 3 | 3 of 9
GFTHDDYAMH | GISWNSGSIGYADTVK | VHRGGGYFDY | nd | 0 of 3 | 1 of 9
GFTLDDYAMH | GISWNSGSIWYADSVK | VGRGGGYTDY | 4.78 | 1 of 3 | 2 of 9
GFTSDDYAMW | GISWNSGSIGYADSVK | VGWGGGYFDY | 5.31 | 3 of 3 | 3 of 9
GFTFDDYAWH | GISWGSGSIGGADSVK | VGRGGGYFDY | 4.78 | 1 of 3 | 4 of 9
GFTFDDYAMH | GISWNSGSICYADSHW | VGRGGGYFDY | nd | 0 of 3 | 0 of 9
GFTFDDHAMH | GISWQSGSIGYADSVK | VGRGGGCFDY | nd | 0 of 3 | 4 of 9
GFTFDDYANH | GISWNEGSIGYAISVK | VGRGGGYFDY | nd | 0 of 3 | 0 of 9
GDTFDDYAMH | GISWNSGSIGYADKVK | VGRGIGYFDY | 4.33 | 1 of 3 | 2 of 9
LFTFDDYAMH | GISWYSGSIGYADSVK | VGRGGGYFDK | 6.00 | 2 of 3 | 5 of 9
GFTFDDYAMH | GISYNSGSILYAFSVK | VGRGGGYFDY | nd | 0 of 3 | 2 of 9
GFTFDDYAMH | GINWTSGSAGYADSVK | VGRGGGYFDY | nd | 0 of 3 | 2 of 9
GFTFDDYAMH | GISWNSGSIGYANSEK | VGRDGGYFDY | 4.58 | 1 of 3 | 5 of 9
GFTFDDYAMH | EISWNSQSIGYADSVK | VGRLGGYFDY | nd | 0 of 3 | 0 of 9
GFTFPDYARH | GISWNSGSIGYADSVK | VGRGGMYFDY | nd | 0 of 3 | 0 of 9
GFTFDDYYMH | GISWNSGDIGYADSVK | VGREGGYFDY | 4.85 | 2 of 3 | 1 of 9
GFTFDDYAMH | GISWNSGSIGVAVSVK | VGRGSGYFDY | nd | 0 of 3 | 0 of 9
GFTFDDYAMH | GISWNSGSIGYADSVK | TGRGGRYFDY | 4.88 | 2 of 3 | 1 of 9
GFTFDDYAMH | GISWNSGSIGYADSIK | VGVGMGYFDY | 4.75 | 1 of 3 | 1 of 9
GCTFDDYAMH | GISWNSGSCGYADSVK | FGRGGGYFDY | nd | 0 of 3 | 1 of 9
GFTFDDYAMH | GISQCSGSIGYAQSVK | VGRGGGYFDY | 4.19 | 3 of 3 | 2 of 9
GFTFDDKAMH | GISWNSGSIGYADSVK | VGRGHGYFTY | 5.23 | 2 of 3 | 5 of 9
GFTRDDYAMH | GISWNSGSIGYADSVK | VGRGAGMFDY | 4.80 | 3 of 3 | 4 of 9
GFTKGDYAMH | GISWNSGSIGYADSVK | VGRFGGYFDY | nd | 0 of 3 | 1 of 9
GFTFDDYAMH | IKSWNSGSIGYADWVK | VGRGGGYFDY | nd | 0 of 3 | 3 of 9
GFTFDDYAMH | GISWNSGSIGYVDSVI | VGRGGGIFDY | 5.04 | 2 of 3 | 6 of 9
GGTFDDYAMH | GISWNSGSIPYADSVK | VGRGGQYFDY | nd | 0 of 3 | 3 of 9
GFTFDRYAMH | GISWESGSIGYADSVK | VGRGDGYFDY | 0.53 | 3 of 3 | 2 of 9
GFTFDNYAMH | GIEWNSGSIGYADSVW | VGRGGGYFDY | nd | 0 of 3 | 0 of 9
GFTFDDYAEH | GISWNPGSIGYADSVK | VGRGGGYLDY | 4.73 | 1 of 3 | 2 of 9

Repeated from above, the 7 best binders with a signal in all replicates:

CDR-H1 | CDR-H2 | CDR-H3 | log10 Kd (nM), mean | replicates with signal | control signals
GFTFDDYAMH | GISWNSGSIGYADSVK | PGRGGGIFPY | 0.42 | 3 of 3 | 0 of 9
GFTFDRYAMH | GISWESGSIGYADSVK | VGRGDGYFDY | 0.53 | 3 of 3 | 2 of 9
GFTFDDYAMH | GISPNSGSIGYADSHK | VGRGGGYFDY | 0.95 | 3 of 3 | 6 of 9
GFWFDDYAMH | GISWNSGSIGYAESVK | VGRGGGYFSY | 1.17 | 3 of 3 | 2 of 9
GFMFDDYAMH | GISWNSHSIGYADSVK | VGRGGGYFDY | 3.05 | 3 of 3 | 2 of 9
GFTFDDYAMH | GISDNSGHIGYAQSVK | VGRGGGYFDY | 3.11 | 3 of 3 | 4 of 9
GFTFDDYAMH | GISQCSGSIGYAQSVK | VGRGGGYFDY | 4.19 | 3 of 3 | 2 of 9

Source: Engelhart et al. 2022 (doi:10.1038/s41597-022-01779-4), MIT Lincoln Laboratory and A-Alpha Bio; data file from the FLAb repository.